Test results: ChEMBL document CHEMBL5532678, “Comprehensive Insights that Targeting PIM for Cancer Therapy: Prospects and Obstacles” (J Med Chem, 2024)
pIC50: −log10 of the molar value.

The chains behind the UniProt entries cited, without tags or fusion partners. Where a name states a change or a piece, a line headed by the entry shows the natural chain unless it says otherwise.
UniProt Q9P1W9: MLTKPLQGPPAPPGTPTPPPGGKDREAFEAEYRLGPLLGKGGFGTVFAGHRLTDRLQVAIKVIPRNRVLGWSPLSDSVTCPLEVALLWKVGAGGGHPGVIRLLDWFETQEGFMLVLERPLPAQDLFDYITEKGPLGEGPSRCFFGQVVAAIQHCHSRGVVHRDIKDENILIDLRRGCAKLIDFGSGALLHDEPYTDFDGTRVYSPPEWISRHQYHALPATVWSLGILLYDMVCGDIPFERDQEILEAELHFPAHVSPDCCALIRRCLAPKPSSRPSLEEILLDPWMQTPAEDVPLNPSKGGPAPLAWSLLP

Target: Serine/threonine-protein kinase pim-2 (Homo sapiens, UniProt Q9P1W9)

With `CN1CCC(CNc2ccc3ncc(-c4cccc(OC(F)(F)F)c4)n3n2)CC1` [SGI-1776] the pIC50 was 7.44.
